Laboratory results as given in paper PMC13156300 (Nature Communications, 2026).

Target: T1, LRRC58-EloB/C complex (human | , UniProt Q96CX6 1-371; Q15370 1-118; Q15369 1-112)
T1 construct: LRRC58, BC-box substrate receptor; Elongin B (EloB), untagged; Elongin C (EloC), untagged; also called LRRC58 with Elongin B and Elongin C; source: Trichoplusia ni High Five insect cells, coexpressed, purified (Strep-Tactin, 3C cleavage, anion exchange, SEC); not shown: TwinStrep, N-terminal, cleaved; copies: + +
Test: SEC; purified CDO1 mixed with LRRC58-EloB/C, and further with CUL2-RBX1 or CUL5-RBX2; co-migration by size-exclusion chromatography
Conditions: both partners purified

- binding result: binds
B1: cysteine dioxygenase type 1 (CDO1), wild type (enzyme, human, UniProt Q16878 1-200, looked up)
chain: MEQTEVLKPRTLADLIRILHQLFAGDEVNVEEVQAIMEAYESDPTEWAMYAKFDQYRYTRNLVDQGNGKFNLMILCWGEGHGSSIHDHTNSHCFLKMLQGNLKETLFAWPDKKSNEMVKKSERVLRENQCAYINDSIGLHRVENISHTEPAVSLHLYSPPFDTCHAFDQRTGHKNKVTMTFHSKFGIRTPNATSGSLENN
notes: cysteine dioxygenase type 1 (CDO1), wild type; also called WT CDO1; Cy5-CDO1
